Assay [1] addresses hPDE4D (Homo sapiens, UniProt Q08499). Briefly: biochemical.
Assay [2] has as its target hPDE1B (Homo sapiens, UniProt Q01064). As to the kind of experiment: biochemical.

Sequences of proteins named here, by UniProt entry; tags and fusion partners are left off. A change or cut given only in a name is not applied to a line headed by its entry.
UniProt Q08499: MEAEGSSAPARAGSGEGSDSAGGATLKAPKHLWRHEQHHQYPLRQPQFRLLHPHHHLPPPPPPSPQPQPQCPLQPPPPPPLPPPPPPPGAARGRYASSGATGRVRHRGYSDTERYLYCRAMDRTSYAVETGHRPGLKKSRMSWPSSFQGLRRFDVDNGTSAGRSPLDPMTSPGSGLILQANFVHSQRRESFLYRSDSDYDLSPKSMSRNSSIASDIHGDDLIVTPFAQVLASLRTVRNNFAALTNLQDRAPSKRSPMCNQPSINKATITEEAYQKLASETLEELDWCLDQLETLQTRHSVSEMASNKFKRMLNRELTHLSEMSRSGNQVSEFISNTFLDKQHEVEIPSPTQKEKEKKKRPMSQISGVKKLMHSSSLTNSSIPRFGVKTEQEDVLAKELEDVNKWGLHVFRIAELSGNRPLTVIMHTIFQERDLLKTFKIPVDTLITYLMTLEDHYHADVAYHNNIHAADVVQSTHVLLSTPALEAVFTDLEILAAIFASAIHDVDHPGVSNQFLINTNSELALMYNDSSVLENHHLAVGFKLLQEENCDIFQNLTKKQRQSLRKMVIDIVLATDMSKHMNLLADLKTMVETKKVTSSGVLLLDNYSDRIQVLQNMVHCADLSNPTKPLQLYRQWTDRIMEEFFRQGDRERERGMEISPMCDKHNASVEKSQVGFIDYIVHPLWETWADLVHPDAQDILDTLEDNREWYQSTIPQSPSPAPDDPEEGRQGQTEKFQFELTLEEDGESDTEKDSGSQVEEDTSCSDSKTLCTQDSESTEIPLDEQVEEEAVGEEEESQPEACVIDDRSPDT

pIC50: −log10 of the molar value.

As usually defined, the pIC50 is the IC50 on a negative log10 scale, so that one unit is a factor of ten. A low value points to a large IC50. As to `CN1C(=O)c2c(nn(Cc3ccc(-c4cccc(F)n4)cc3)c2Nc2ccccc2)N2C1=N[C@@H]1CCC[C@@H]12` [Compound 1], the pIC50 in assay [1] is 7.44; in assay [2], 9.42.

Values taken from patent US20240009195A1, “NOVEL USES” (INTRA-CELLULAR THERAPIES, INC., priority 2020, published 2024).
